Screening results (PubChem BioAssay)
Rows were chosen to be rich in hits. Some 3.7% of all compounds tested hit in one or more screens of this group.
Nrf2 activator: Nrf2 pathway activation; AREc32 ARE-luciferase reporter (MCF7-derived line), luminescence, 24 h; Potency, µM (doses to about 46.1 µM), for inactives: at the highest dose activation, most hits filed as activators; hit rate 0.31% among 410,000; AID 624171; also: potency is read from the fitted curve at half-maximal effect; % of control where 0% means no effect; nearly all actives have a fitted effect of over 65% in size
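AREc32_Fluc, 1000 cells/well, OPTI-MEM + 5% FBS, o/n 37 deg C 5% CO2; 23 nL cpd by pin tool, 24 hr; Steady-Glo 30 min RT, luminescence.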
Nrf2 block: inhibitors of Nrf2 signaling; A549 ARE-Fluc reporter, luciferase luminescence, 18-24 h; Potency, µM (titrated, usually from 46 µM), for the others: top-dose activity change, negative = inhibition, hits mostly inhibitors; hit rate 2.1% among 360,000; AID 504444; also: potency is read from the fitted curve at half-maximal effect; % is scaled to controls: 0 for no effect and ±100 for the full control effect; nearly all actives have a fitted effect of over 60% in size
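Quantitative HTS in A549 cells stably bearing an antioxidant response element-firefly luciferase construct. Inhibition of Nrf2-driven transcription was scored by luminescence after 18-24 h of compound exposure at 37 °C.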
TCR activator: activates T cell receptor signaling | primary human leukocytes, anti-CD3, IL-2 HTRF, 48 h | Potency, µM (doses to about 9.22 µM), inactives show at the top dose activation of IL-2 secretion, usual class: activators | 330,000 tested, under 10 active | AID 504894; also: % of control where 0% means no effect
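Human primary leukocytes + a-CD3 beads + cpd, 48 hr; IL-2 in supernatant by HTRF (ex 320nm / em 665nm). No co-stimulatory signal supplied.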
A549 tox: counter-screen for Nrf2 inhibitors: cytotoxicity in A549 cells. A549 ARE-Fluc cells, CellTiter-Fluor viability, 18-24 h. Potency, µM (highest dose often 46 µM), for the others: at the top dose activity change, negative = cytotoxicity, actives largely listed as inhibitors. hit rate 0.16% among 390,000. AID 504648; also: potency is read from the fitted curve at half-maximal effect; % is scaled to controls: 0 for no effect and ±100 for the full control effect
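A549 ARE_Fluc cells in 5% FBS OPTI-MEM were exposed to compounds in concentration-response for 18-24 h at 37 deg C. Viability was read by CellTiter-Fluor fluorescence (Ex 405/Em 525) after 30 min, before the luciferase read.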
ClpP mod: qHTS Assay for Activators of ClpP. purified B. subtilis ClpP, FRET peptide cleavage, 20 min. Potency, µM (highest dose often 57.5 µM), for inactives: at the top dose activity change, negative = active. hit rate 1.9% among 340,000. AID 651965, 2013; active = well fitted falling curve with a large enough effect; inconclusive = small, poorly fitted or top-dose-only effect; inactive = no such curve, though single readings can be large or run the other way; also: potency is read from the fitted curve at half-maximal effect; the source files actives as falling curves though it sought activators and does not explain the sign; nearly all actives have a fitted effect of over 65% in size
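Buffer: 100 mM Tris/HCl pH8, 100 mM KCl, 0.05% low protease BSA, 2.5% glycerol, 0.01% Tween-20. ClpP 10 microg/mL final; 20 min RT; delta FRET normalized to ADEP and DMSO controls.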
miR-21 reporter: miR-21 reporter, rising signal | HeLa miR-21 FLuc reporter, luciferase, 48 h | Potency, µM (doses to about 38.3 µM), inactives show at the top dose reporter change, positive = more light | 340,000 tested, under 10 active | AID 2288; active = well fitted rising curve with a large enough effect; inconclusive = small, poorly fitted or top-dose-only effect; inactive = no such curve, though single readings can be large or run the other way;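 note: % of control where 0% means no effect; miR-21 action dims this reporter so a rising signal means less miR-21 action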
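HeLa cells stably expressing CMV-driven firefly luciferase with a downstream miR-21 binding sequence, endogenously expressing miR-21, were treated with titrations (up to about 40uM final) for 48 hours at 37 degree Celsius. Luciferase luminescence was read after lysis.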
The depositor's hits bear a star; ? = inconclusive; . = no result given; [ ] = another dose, or the depositor's remark. Unless noted, calls follow the shape of the dose curve; as a rule, active = well fitted curve in the direction sought with a large enough effect; inconclusive = small, poorly fitted or top-dose-only effect, or another doubt; inactive = no such curve, though single readings can be large; an effect the other way counts as inactive or inconclusive.

cpd | canonical_smiles | Nrf2 activator | Nrf2 block | TCR activator | A549 tox | ClpP mod | miR-21 reporter
1 | CCCN(CCC)CCCNC(=O)c1cc2cc3ccc(Cl)cc3nc2o1 | -1% | 13% | -5% | 5% | -1% | -9%
2 | O=C(NCc1ccco1)c1cc2cc3ccc(Cl)cc3nc2o1 | 12% | 23µM* | 6% | ? | -12% | -14%
3 | COc1ccc2cc3cc(C(=O)NCCN4CCN(c5ccccc5F)CC4)oc3nc2c1 | 0% | 18µM* | 3% | ? | 1% | -8%
4 | COc1ccc2cc3cc(C(=O)NCc4ccco4)oc3nc2c1 | 4% | 5.2µM* | . | -25% | 96% | -3%
5 | CN1CCN(C(=O)C[C@@H]2C=C[C@H](NS(=O)(=O)c3cccc(F)c3)[C@@H](CO)O2)CC1 | . | . | . | . | 1% | .
6 | CC1(C)CCC2=C(O1)c1ccccc1C(=O)C2=O | . | . | . | . | 8% | .
7 | Cn1c(=O)c2[nH]c(Cc3cccc(O)c3)nc2n(C)c1=O | 5% | -21% | 3% | 1% | . | .
8 | Cn1c(=O)c2[nH]c(COc3ccc(C(C)(C)C)cc3)nc2n(C)c1=O | -1% | 12µM* | 13% | -19% | 3% | 5%
9 | Cn1c(=O)c2[nH]c(CCCCCc3nc4ccccc4[nH]3)nc2n(C)c1=O | 0% | 0% | 2% | 3% | 1% | .
10 | Cn1c(=O)c2[nH]c(CCCCCCCc3nc4ccccc4[nH]3)nc2n(C)c1=O | 11% | 16µM* | -4% | ? | -1% | .
11 | O=S1(=O)N=C(Oc2ccccc2F)c2ccccc21 | . | ? | . | 1% | . | .
12 | Cc1nc2ccc(S(=O)(=O)N3CCN(S(=O)(=O)c4c(F)cccc4F)CC3)cc2s1 | . | -5% | . | -3% | . | .
13 | CC(=O)N1CCN(c2ccc(NS(=O)(=O)c3ccc(C)cc3)cc2)CC1 | 0% | 0% | 1% | 1% | . | -1%
14 | CC1(C)C(=O)OC(C(=O)c2ccc(C(C)(C)C)cc2)C(C)(C)C1=O (configuration not stated) | 2% | . | 1% | 2% | 32µM* | -11%
15 | Cc1cc(C)c(C)c(C(=O)C2OC(=O)C(C)(C)C(=O)C2(C)C)c1C (configuration not stated) | 0% | -6% | 3%[46.1 µM] | 1% | -1% | -3%
16 | O=C1/C(=C\c2ccc(Cl)c(Cl)c2)CN(C(=O)CCN2CCOCC2)C/C1=C/c1ccc(Cl)c(Cl)c1 | ? | ? | 3% | 21µM* | 1% | .

Arranged by the number under TCR activator (largest number first): 4 of the compounds above
| No. | Structure | Nrf2 activator | Nrf2 block | TCR activator | miR-21 reporter |
| --- | --- | --- | --- | --- | --- |
| 16 | O=C1/C(=C\c2ccc(Cl)c(Cl)c2)CN(C(=O)CCN2CCOCC2)C/C1=C/c1ccc(Cl)c(Cl)c1 | ? | ? | 3% | . |
| 9 | Cn1c(=O)c2[nH]c(CCCCCc3nc4ccccc4[nH]3)nc2n(C)c1=O | 0% | 0% | 2% | . |
| 14 | CC1(C)C(=O)OC(C(=O)c2ccc(C(C)(C)C)cc2)C(C)(C)C1=O (configuration not stated) | 2% | . | 1% | -11% |
| 10 | Cn1c(=O)c2[nH]c(CCCCCCCc3nc4ccccc4[nH]3)nc2n(C)c1=O | 11% | 16µM* | -4% | . |

Next part.
cpd | canonical_smiles | Nrf2 activator | Nrf2 block | TCR activator | A549 tox | ClpP mod | miR-21 reporter
17 | Cc1ccc(C)c(N2CCN(C(=O)Cc3cn(C)c4ccccc34)CC2)c1 | 3% | 21µM* | -3% | ? | -10% | -2%
18 | COc1ccc(/C=N/c2c(-c3ccco3)nc3ccccn23)cc1OC | 3% | -18% | 2% | . | 28µM* | -5%
19 | Cc1cc(-c2sccc2C)nc(-n2cccc2)n1 | 5.6µM* | 10% | 4% | -5% | -6% | -13%
20 | Cc1nc2cc(-c3sccc3-n3cccc3)nn2c(C)c1C | 4% | 11% | -2% | 12% | -28% | -28%
21 | O=C(NCc1cccc(Cl)c1)c1cnc(N2CCCCC2)c2ccccc12 | 0% | . | . | -10% | 32µM* | -10%
22 | O=C(NCc1ccc(Cl)cc1)c1cnc(N2CCCCC2)c2ccccc12 | 1% | . | . | -1% | 28µM* | 5%
23 | O=C(CCc1nnc2ccc(NCc3ccco3)nn12)N1CCN(c2ccc(F)cc2)CC1 | 2% | -13% | 0% | -4% | -5% | -5%
24 | CC1(C)CC(=O)C2=C(C1)Nc1ccccc1NC2c1cccnc1 (configuration not stated) | 3% | 4% | 2% | 0% | -4% | 1%
25 | CN(C)c1ccc(-c2nc3n(n2)C(c2cccnc2)C2=C(CC(C)(C)CC2=O)N3)cc1 (configuration not stated) | 2% | -12% | 1% | 1% | 14µM* | -21%
